The target in the experiment is Lysine-specific histone demethylase 1A (Homo sapiens, UniProt O60341). Kind of experiment: Inhibition of human recombinant LSD1 (852 residues) incubated for 1 hr by HTRF method. A general note: In TR-FRET formats the signal depends on donor and acceptor labels being close together.

Each structure is given as a SMILES string.

Broadly, the IC50 is the concentration needed to halve the response being measured. With `Cl.O=S(=O)(c1ccccc1)n1ncc2cc(-n3cc(CN[C@@H]4C[C@H]4c4ccc(F)c(F)c4)nn3)ccc21`, the IC50 worked out at 9.85 nM.
